Assay results taken from patent US10668067B2, “Pyridine sulfonamides” (AMGEN INC., priority 2016, dated 2020).

Sequences of proteins named here, by UniProt entry; tags and fusion partners are left off.
UniProt Q15858, whole entry: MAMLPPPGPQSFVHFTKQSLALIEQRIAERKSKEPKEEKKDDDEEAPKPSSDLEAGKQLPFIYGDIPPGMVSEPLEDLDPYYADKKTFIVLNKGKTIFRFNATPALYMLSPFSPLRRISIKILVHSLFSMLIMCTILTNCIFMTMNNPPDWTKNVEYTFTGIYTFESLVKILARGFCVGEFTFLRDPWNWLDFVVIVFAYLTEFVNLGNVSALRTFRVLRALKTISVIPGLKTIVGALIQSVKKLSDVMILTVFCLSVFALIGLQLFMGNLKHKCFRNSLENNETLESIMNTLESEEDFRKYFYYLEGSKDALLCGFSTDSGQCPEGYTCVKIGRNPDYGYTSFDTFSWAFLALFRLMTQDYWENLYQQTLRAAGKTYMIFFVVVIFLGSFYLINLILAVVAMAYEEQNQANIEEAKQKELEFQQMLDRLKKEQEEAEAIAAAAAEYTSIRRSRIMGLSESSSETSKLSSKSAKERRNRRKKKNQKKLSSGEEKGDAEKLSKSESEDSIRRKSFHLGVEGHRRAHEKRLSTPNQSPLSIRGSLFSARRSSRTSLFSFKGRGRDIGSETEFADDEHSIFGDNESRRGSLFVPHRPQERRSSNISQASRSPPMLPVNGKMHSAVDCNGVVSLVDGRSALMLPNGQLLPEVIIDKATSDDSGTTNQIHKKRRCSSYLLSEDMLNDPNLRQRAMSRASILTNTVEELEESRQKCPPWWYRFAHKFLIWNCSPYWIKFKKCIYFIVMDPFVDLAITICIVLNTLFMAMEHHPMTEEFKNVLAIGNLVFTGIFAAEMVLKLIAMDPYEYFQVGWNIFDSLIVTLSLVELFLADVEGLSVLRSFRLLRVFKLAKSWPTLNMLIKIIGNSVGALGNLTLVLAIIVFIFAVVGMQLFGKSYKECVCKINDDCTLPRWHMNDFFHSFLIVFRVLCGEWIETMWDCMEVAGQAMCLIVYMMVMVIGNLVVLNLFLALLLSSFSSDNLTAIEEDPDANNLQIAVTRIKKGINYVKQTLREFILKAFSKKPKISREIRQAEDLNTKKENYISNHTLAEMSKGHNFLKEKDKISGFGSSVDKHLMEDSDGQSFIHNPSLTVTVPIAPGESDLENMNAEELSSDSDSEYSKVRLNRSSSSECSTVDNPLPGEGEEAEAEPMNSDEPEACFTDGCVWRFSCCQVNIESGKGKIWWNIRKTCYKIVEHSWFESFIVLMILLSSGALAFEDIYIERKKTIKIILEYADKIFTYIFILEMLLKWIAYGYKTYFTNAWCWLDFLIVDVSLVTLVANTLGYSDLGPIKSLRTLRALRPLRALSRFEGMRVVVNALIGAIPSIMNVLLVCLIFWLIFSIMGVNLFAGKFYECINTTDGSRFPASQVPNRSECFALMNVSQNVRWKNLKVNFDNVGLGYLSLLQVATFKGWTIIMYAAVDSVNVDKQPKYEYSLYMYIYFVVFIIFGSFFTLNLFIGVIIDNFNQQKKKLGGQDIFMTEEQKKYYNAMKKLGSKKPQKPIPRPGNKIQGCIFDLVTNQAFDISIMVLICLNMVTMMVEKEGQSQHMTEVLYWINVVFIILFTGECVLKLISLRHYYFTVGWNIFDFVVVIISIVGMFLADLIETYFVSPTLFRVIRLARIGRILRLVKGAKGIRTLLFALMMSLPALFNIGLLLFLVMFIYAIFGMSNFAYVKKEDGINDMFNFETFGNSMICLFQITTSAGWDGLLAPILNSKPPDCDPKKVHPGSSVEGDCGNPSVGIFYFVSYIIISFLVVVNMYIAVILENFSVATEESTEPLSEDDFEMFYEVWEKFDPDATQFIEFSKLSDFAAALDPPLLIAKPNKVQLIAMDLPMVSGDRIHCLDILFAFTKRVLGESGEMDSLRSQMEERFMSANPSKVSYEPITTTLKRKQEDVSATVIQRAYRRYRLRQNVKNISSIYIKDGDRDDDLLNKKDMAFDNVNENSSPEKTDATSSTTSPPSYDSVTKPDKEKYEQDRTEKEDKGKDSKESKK

Target: human Nav1.7 (Homo sapiens (Human), UniProt Q15858)
Assay: Nav 1.7 In Vitro PX Assay (PatchXpress whole cell voltage clamp)
Format: cell-based
Conditions: in-vitro Nav 1.7 PX data

**Q.** `CNC(=O)N(c1ccc(S(=O)(=O)Nc2ncccn2)cn1)c1cc(F)c(-c2ccc(F)c(OC(F)(F)F)c2)cc1OC` [Example 1-87, 6-((2,4′-difluoro-5-methoxy-3′-(trifluoromethoxy)-4-biphenylyl)(methylcarbamoyl)amino)-N-2-pyrimidinyl-3-pyridinesulfonamide] was tested. Which IC50 did it give?
**A.** 14 nM
